Experimental data as given in article PMC11284788, “NN1213 – A Potent, Long-Acting, and Selective Analog of Human Amylin” (Journal of Medicinal Chemistry, 2024).

Key:
hAMY3R [1] = molecular target: T1, hAMY3R (Homo sapiens, UniProt O60896+P30988); assay: cAMP-responsive element luciferase reporter assay, human AMY3R; type: cell-based; design: expressed in transfected cells; conditions: ratio of luciferase EC50 values
T1 sequence (P30988 25-474): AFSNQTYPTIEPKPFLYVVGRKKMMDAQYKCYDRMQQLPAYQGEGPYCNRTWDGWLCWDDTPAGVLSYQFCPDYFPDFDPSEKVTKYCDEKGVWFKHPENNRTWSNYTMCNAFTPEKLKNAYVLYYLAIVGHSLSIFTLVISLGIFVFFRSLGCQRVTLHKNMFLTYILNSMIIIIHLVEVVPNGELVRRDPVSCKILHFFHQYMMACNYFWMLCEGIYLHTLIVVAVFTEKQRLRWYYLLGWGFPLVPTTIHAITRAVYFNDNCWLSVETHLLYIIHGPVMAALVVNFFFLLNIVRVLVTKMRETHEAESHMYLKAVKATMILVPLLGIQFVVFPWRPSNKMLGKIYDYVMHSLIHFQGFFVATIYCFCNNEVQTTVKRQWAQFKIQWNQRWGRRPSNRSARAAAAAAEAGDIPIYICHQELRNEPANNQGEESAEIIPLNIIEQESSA
T1 sequence (O60896 24-148 partner): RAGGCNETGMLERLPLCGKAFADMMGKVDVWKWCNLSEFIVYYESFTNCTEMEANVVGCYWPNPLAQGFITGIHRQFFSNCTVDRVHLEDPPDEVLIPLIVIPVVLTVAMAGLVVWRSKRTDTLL

rAMY3R = molecular target: T2, rAMY3R (Rattus norvegicus, UniProt P32214+Q9JJ73); assay: scintillation proximity binding assay, rAMY3R membranes; design: expressed in transfected cells; host or cells: BHK tk-ts 13, transient co-transfection (FuGENE 6); conditions: ratio of binding IC50 values
T2 sequence (P32214 25-479 isoform P32214-2 limits assumed): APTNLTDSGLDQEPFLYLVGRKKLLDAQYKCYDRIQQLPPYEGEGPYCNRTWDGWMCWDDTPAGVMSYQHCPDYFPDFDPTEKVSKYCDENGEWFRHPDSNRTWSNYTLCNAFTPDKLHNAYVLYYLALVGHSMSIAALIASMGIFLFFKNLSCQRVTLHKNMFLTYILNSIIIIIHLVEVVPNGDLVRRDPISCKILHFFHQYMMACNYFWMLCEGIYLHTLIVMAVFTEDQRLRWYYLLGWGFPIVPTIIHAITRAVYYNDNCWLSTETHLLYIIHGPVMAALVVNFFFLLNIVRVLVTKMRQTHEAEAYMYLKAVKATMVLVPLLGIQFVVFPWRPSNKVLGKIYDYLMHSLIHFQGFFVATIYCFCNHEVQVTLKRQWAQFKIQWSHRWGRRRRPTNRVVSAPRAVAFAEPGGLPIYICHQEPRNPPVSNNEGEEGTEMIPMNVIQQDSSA
T2 sequence (Q9JJ73 23-147 partner): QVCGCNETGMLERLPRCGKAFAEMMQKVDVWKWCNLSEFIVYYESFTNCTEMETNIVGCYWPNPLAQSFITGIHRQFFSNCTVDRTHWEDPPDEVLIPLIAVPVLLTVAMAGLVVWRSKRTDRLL
Procedure: (§1) The apparent binding affinities were determined using a scintillation proximity assay with beads from PerkinElmer and cell membranes containing the AMY3R or CTRs. […] Membranes were harvested and membranes were prepared and kept at −80 °C until use. The assay was performed in a 384-well Optiplate (PerkinElmer). Membranes were mixed with scintillation proximity assay beads in a 1:1 ratio. […] Samples were analyzed on a TopCounter (Packard). The IC50 values were calculated using GraphPad Prism. See Supporting Information S7: SAR Screening Assay Methods (Binding Assays (Human and Rat)) for more information.
(§2) Binding Assays (Human and Rat). Brief descriptions of the methods used to determine binding affinities for SAR analysis are described below. Curves and IC50 values were plotted and calculated in GraphPad Prism using nonlinear regression (one site binding competition analysis), with pIC50 values […]
(§3) containing 20 mM Na-HEPES and 0.1 mM EDTA (pH 7.4, buffer 2). The resulting pellet was re-suspended in buffer 2 and protein concentration was measured (BCA protein assay, Pierce). […]
(§4) prior to centrifugation (1500 rpm, 10 min). Samples were analyzed on TopCounter (Packard). […]
(§5) 7.4, buffer 2). The resulting pellet was re-suspended in buffer 2 and protein concentration was measured (BCA protein assay, Pierce). […]

hAMY3R [2] = molecular target: T1, hAMY3R; assay: scintillation proximity binding assay, hAMY3R membranes; design: expressed in transfected cells; host or cells: BHK tk-ts 13, transient co-transfection; membranes for the SPA, whole cells for the species-specific assays; conditions: ratio of binding IC50 values
Procedure: as §1, §2, §3, §4, §5

CC[C@H](C)[C@H](NC(=O)[C@H](C)NC(=O)CNC(=O)[C@H](Cc1ccccc1)NC(=O)[C@H](CC(N)=O)NC(=O)[C@@H]1CCCN1C(=O)[C@H](CO)NC(=O)[C@H](CO)NC(=O)[C@H](Cc1c[nH]cn1)NC(=O)[C@H](CCCNC(=N)N)NC(=O)[C@H](CC(C)C)NC(=O)[C@H](Cc1ccccc1)NC(=O)[C@H](CC(N)=O)NC(=O)[C@H](C)NC(=O)[C@H](CC(C)C)NC(=O)[C@H](CCCNC(=N)N)NC(=O)[C@H](CCC(N)=O)NC(=O)[C@@H](NC(=O)[C@H](C)NC(=O)[C@@H]1CSSC[C@H](NC(=O)[C@H](CCCCN)NC(=O)COCCOCCNC(=O)CC[C@H](NC(=O)CCCCCCCCCCCCCCCCCCC(=O)O)C(=O)O)C(=O)N[C@@H](CC(N)=O)C(=O)N[C@@H]([C@@H](C)O)C(=O)N[C@@H](C)C(=O)N[C@@H]([C@@H](C)O)C(=O)N1)[C@@H](C)O)C(=O)N1CCC[C@H]1C(=O)N[C@@H](CO)C(=O)N[C@@H](CO)C(=O)N[C@H](C(=O)N[C@@H](CC(N)=O)C(=O)N[C@H](C(=O)NCC(=O)N[C@@H](CO)C(=O)N[C@@H](CCCNC(=N)N)C(=O)N[C@H](C(=O)N[C@@H](Cc1ccc(O)cc1)C(N)=O)[C@@H](C)O)C(C)C)[C@@H](C)O [Peptide 15]
ratio hCTR/hAMY3R (hAMY3R [1]): 52 | ratio rCTR/rAMY3R (rAMY3R): 88 | ratio hCTR/hAMY3R (hAMY3R [2]): 99
